{"source": "patent US20100249164A1", "about": "“MODULATION OF SLEEP WITH NR2B RECEPTOR ANTAGONISTS” (priority 2007, published 2010)", "system": "Sprague Dawley rats", "settings": "in vivo, po, 25 mg/kg", "data": [{"smiles": "Cc1ccc(COC(=O)N2CCC(CNc3ncccn3)CC2)cc1", "values": [{"measurement": "activity in preclinical rat sleep model", "result": "active"}]}]}
